Laboratory results reported in US20150166523A1, “BRANCHED CHAIN ALKYL HETEROAROMATIC RING DERIVATIVE” (TAISHO PHARMACEUTICAL CO., LTD., priority 2012, published 2015).

Sequences of proteins named here, by UniProt entry; tags and fusion partners are left off.
UniProt O43614, whole entry: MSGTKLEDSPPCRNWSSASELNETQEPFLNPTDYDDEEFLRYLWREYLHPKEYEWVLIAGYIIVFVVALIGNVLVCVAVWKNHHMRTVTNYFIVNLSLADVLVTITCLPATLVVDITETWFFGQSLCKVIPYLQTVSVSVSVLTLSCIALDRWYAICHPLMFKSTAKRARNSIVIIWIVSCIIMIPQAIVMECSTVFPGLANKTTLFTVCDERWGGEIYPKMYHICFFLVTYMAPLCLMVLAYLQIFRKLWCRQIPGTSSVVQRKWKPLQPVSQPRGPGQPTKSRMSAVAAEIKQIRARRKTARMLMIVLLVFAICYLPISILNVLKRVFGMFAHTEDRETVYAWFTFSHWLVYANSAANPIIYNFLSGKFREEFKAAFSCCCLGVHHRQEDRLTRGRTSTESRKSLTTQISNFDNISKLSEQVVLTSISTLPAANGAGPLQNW
UniProt O43613, whole entry: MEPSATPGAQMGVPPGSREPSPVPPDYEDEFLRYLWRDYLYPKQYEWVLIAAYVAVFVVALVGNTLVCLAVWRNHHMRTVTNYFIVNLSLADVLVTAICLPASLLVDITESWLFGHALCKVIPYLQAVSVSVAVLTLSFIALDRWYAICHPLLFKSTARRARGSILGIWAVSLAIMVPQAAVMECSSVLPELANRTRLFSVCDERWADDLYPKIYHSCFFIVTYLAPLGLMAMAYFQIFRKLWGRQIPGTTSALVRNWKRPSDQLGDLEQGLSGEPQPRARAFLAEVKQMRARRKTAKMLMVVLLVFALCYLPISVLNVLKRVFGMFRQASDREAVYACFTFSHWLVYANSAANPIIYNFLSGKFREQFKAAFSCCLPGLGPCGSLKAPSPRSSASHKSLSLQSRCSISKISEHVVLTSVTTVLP

What was measured:
[1] = target: T1, orexin-2 receptor (hOX2R) (Homo sapiens, UniProt O43614); experiment: Measurement of orexin antagonistic activity (intracellular Ca2+ fluorescence, FDSS) on hOX2R; assay type: cell-based; details: CHO cells forcibly expressing hOX2R; Fluo-4AM; ligand peptide (substituted human orexin-A) 3 nM; compound preincubated 30 minutes; read-out: IC50 Value OX2
T1 construct: expressed in transfected cells; host or cells: Chinese hamster ovary (CHO) cells
Protocol: (§1) The antagonistic activities of the test compounds on human orexin-1 receptor (hOX1R) and orexin-2 receptor (hOX2R) were measured by modifying from the method described in literature (Toshikatsu Okumura et al., Biochemical and Biophysical Research Communications, 280, 976-981, 2001). Chinese hamster ovary (CHO) cells forcibly expressing the hOX1R and hOX2R were seeded into a 96 well Black clear bottom plate (Nunc) at 20,000 cells per well, which were cultured in Ham's F-12 medium containing 0.1 mM MEM non-essential amino acids, 0.5 mg/mL G418, 10% fetal bovine serum (all by Invitrogen) for 16 hours under the conditions of 37° C., 5% CO2. After removing the medium, 100 μL of 0.5 μM Fluo-4AM ester (Dojin) in an assay buffer (25 mM HEPES (Dojin), Hank's balanced salt solution (Invitrogen), 0.1% bovine serum albumin, 2.5 mM probenecid, 200 μg/mL Amaranth (all by Sigma-Aldrich), pH 7.4) was added and the cells were incubated for 60 minutes at 37° C., 5% CO2. […]
(§2) The reaction was measured for the fluorescence intensity of each well every second for 3 minutes using Functional Drug Screening System (FDSS; Hamamatsu Photonics K.K.), and the antagonistic activity was determined using the maximum fluorescence intensity as the indicator of intracellular Ca2+ concentration.

[2] = target: T2, human orexin-1 receptor (hOX1R) (Homo sapiens, UniProt O43613); experiment: Measurement of orexin antagonistic activity (intracellular Ca2+ fluorescence, FDSS) on hOX1R; assay type: cell-based; details: CHO cells forcibly expressing hOX1R; Fluo-4AM; ligand peptide (substituted human orexin-A) 300 pM; compound preincubated 30 minutes; read-out: IC50 Value OX1
T2 construct: expressed in transfected cells; host or cells: Chinese hamster ovary (CHO) cells
Protocol: as §1, §2

IC50 [1] [nM] | IC50 [2] [nM] | SMILES
1900 |  | CCN(C(=O)c1nc(C)ccc1-c1ncccn1)[C@@H](C)Cn1nnc(-c2ccc(F)cc2)n1 [Example 69, N-Ethyl-N-{(2S)-1-[5-(4-fluorophenyl)-2H-tetrazol-2-yl]propan-2-yl}-6-methyl-3-(pyrimidin-2-yl)pyridine-2-carboxamide]
452 | 1.1 | CCN(C(=O)c1cc(F)ccc1-c1ncccn1)[C@@H](C)Cn1nnc(-c2ccc(F)cc2)n1 [Example 70, N-Ethyl-5-fluoro-N-{(2S)-1-[5-(4-fluorophenyl)-2H-tetrazol-2-yl]propan-2-yl}-2-(pyrimidin-2-yl)benzamide]
